Results published in US8501770B2 (ArQule, Inc., priority 2009, dated 2013).

Chains of the proteins cited; added tags and fusions are not shown. Lines headed by an entry give the natural chain unless they say otherwise; changes in a name come on top.
UniProt P31749: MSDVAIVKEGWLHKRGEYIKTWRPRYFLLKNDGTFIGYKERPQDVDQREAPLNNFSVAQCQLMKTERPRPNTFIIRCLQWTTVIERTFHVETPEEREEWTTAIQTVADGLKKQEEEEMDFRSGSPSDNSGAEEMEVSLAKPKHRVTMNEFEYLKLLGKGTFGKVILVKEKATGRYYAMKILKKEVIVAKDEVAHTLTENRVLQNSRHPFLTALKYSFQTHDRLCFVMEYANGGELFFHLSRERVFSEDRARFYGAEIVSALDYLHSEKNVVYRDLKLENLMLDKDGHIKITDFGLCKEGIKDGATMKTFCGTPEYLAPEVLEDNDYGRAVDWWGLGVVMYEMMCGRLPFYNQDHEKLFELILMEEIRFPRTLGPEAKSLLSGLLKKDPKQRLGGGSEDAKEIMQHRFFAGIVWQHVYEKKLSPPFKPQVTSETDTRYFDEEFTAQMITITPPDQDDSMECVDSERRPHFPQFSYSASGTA

Molecular target: Full-length inactive AKT1 (Homo sapiens, UniProt P31749)
Assay: Inactive Akt HTRF Assay (Akt1)
Details: read-out: Akt1 IC50, (HTRF assay); values marked with "*": HTRF assay

For `NCc1ccc(-n2c(-c3cccnc3N)nc3cc(Br)cnc32)cc1` [Example 6, (3-(3-(4-aminomethyl)phenyl)-6-bromo-3H-imidazolo[4,5-b]pyridin-2-yl)pyridine-2-amine hydro chloride], the IC50 was 68.2 µM.
